The assay concerns the target T1, human 5HT1A (Homo sapiens, UniProt P08908).
T1 construct: expressed in transfected cells; host or cells: HeLa HA7
The assay can be described thus: binding to human 5HT1A receptor (HeLa HA7 cell line). Conditions: HeLa HA7, [3H]-8OH-DPAT 1 nM. The source says: The HeLa HA7 cell line expressing the human 5HT1A receptor was obtained from Tulco (Duke Univ., Durham, N.C., USA) and cultured according to the method of Fargin et al., J. Biol. Chem. 264, 14848 (1989).
Palmier (Neuropharmacology, 33, 67, 1994).

The chains behind the UniProt entries cited, without tags or fusion partners.
UniProt P08908, whole entry: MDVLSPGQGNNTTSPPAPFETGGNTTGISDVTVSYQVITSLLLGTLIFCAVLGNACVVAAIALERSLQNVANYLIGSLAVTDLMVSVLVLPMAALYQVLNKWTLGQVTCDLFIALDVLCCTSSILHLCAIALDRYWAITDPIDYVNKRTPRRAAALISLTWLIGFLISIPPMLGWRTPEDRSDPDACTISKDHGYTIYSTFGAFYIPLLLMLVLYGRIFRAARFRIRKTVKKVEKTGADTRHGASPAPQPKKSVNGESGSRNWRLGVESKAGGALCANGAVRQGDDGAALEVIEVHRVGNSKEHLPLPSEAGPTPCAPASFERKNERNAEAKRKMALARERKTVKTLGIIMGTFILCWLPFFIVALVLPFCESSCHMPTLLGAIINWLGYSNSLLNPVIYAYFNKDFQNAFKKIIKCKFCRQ

The record followed here is US5852049A, “Aromatic ethers derived from indoles which are useful as medicaments” (Pierre Fabre Medicament, priority 1994, dated 1998).

Regarding `CNS(=O)(=O)Cc1ccc2[nH]cc(CCN(C)C)c2c1` [Sumatriptan, reference compound], the affinity, expressed as Ki, was 440 nM.
